Measurements reported in patent US20240043489A1, “Cytokine Prodrugs Comprising a Cleavable Linker” (Trutino Biosciences Inc., priority 2020, published 2024).

Test system: MC38 tumor
Test: Intra-tumoral injection in syngeneic MC38 colorectal cancer model
Type: in vivo, mice
Details: daily intra-tumoral injection, 10 injections, Construct A 70ug/day, r hIL2 5 ug/day

With “r hIL2: recombinant human IL-2, comparison arm dosed at 5 ug/day intra-tumorally [reference compound]” the anti-tumor activity was “no tumor regression” and the anti-tumor activity (listed as human IL-2) was “adversely affected tumor control relative to vehicle”.
